We go through one compound from patent publication US8993631B2, “Method of treating contrast-induced nephropathy” (Novartis AG, priority 2010, dated 2015).

Sequences of proteins named here, by UniProt entry; tags and fusion partners are left off.
UniProt P08473, whole entry: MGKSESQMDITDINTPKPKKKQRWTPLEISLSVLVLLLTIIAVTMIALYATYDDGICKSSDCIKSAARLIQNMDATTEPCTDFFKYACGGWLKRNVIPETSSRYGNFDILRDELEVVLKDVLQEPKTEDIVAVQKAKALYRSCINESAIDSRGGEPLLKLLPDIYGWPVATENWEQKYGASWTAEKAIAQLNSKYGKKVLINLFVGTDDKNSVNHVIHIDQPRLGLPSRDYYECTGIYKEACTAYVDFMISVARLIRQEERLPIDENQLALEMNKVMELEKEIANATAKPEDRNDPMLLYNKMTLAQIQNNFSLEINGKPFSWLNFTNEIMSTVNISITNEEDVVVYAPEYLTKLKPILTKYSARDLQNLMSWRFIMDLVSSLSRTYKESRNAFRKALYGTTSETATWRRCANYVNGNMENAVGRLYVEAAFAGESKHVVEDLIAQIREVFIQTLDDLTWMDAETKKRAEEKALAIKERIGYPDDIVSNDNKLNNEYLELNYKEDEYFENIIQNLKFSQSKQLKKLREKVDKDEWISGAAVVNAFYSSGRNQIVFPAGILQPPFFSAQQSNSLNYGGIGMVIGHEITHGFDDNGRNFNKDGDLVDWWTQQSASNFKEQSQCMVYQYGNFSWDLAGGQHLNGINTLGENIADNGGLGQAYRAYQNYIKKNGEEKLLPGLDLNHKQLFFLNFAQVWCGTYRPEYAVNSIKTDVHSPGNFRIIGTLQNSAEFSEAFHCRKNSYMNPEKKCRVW

This test has as its target recombinant human neutral endopeptidase (NEP, EC 3.4.24.11) (Homo sapiens (Human), UniProt P08473). The experiment in a line: In vitro inhibition of recombinant human neutral endopeptidase (fluorescence lifetime assay). The class given is biochemical. The conditions noted are these: read-out: Human NEP IC50; 1 hour pre-incubation, effect determined after 1 hour at room temperature, pH 7.4.

In general, IC50 refers to the concentration needed to halve the response being measured. As for `O=C(O)C[C@@H](Cc1ccc(-c2cccc(Cl)c2)cc1)NC(=O)c1cc(O)no1`, the IC50 worked out at 0.07 nM.
